Results on one compound are retold here after paper PMC11926787 (ACS Chemical Neuroscience, 2025).

Sequences of proteins named here, by UniProt entry; tags and fusion partners are left off.
UniProt P21397, whole entry: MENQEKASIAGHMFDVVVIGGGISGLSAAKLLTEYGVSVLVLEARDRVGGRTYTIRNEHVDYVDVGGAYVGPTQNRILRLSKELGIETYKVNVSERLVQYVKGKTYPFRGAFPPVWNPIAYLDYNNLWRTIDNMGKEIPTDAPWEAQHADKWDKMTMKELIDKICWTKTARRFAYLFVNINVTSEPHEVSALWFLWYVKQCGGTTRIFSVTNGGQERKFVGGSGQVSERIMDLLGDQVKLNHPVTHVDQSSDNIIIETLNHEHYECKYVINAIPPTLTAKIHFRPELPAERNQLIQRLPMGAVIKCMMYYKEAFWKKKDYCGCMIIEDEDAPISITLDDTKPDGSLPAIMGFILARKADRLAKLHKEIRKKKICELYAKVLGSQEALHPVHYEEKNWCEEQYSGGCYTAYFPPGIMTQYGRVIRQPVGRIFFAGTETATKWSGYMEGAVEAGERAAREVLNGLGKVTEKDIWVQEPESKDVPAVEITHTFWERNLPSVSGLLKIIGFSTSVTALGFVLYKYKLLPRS

In the test the target is human MAO-A (Homo sapiens, UniProt P21397). Put plainly: MAO-Glo bioluminescent enzymatic assay, MAO-A. It is filed as biochemical. To be noted: summary column of Tables 3 and 4.

Regarding `C#CCN(C)CCCOc1ccc(Cl)cc1Cl` [clorgyline], the “MAO-A inhibition (yes/no)” value is on record as “yes”.
